Source: publication PMC9209526 (Nature Communications, 2022)

Sequences of proteins named here, by UniProt entry; tags and fusion partners are left off. Residues count along the entry.
UniProt P00519, 229-512: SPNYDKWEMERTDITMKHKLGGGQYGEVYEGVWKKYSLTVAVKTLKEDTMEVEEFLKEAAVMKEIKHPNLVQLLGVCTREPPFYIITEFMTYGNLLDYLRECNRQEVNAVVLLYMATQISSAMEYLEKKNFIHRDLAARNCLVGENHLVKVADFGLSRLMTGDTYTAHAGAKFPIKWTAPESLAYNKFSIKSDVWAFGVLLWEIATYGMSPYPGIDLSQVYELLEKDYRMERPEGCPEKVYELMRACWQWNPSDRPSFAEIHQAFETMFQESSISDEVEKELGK

Molecular target: N4posAbl (Abl kinase domain with N-terminal KRKKSGG tag) (Homo sapiens, UniProt P00519)
Experiment: ClyA-AS nanopore tweezers single-channel current recording: ligand binding to N4posAbl
Conditions: pH 7.5

Q: How did the Kd (read-out: KD of ATP, S1a binding mode) turn out when ATP was run?
A: 81.6 ± 17.9 µM

Q: And the Kd (read-out: KD of ATP, S1d binding mode)?
A: 113 ± 25.3 µM

Where two headings read alike, the source gives them in different places.
